## Antibody variant affinities, Ab-14 light chain, assay B

From the AlphaSeq antibody data of Li et al. 2023 (doi:10.1038/s41467-023-39022-2), copy in the FLAb collection.

Target peptide (SARS-CoV-2 spike, HR2 region): PDVDLGDISGINAS

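These sequences belong to a second round, designed from the earlier measurements on random variants of the parent. Group labels follow the data file (En: ensemble of fine-tuned language models; GP: Gaussian process model; HC: hill climbing; Gen: genetic algorithm; Gibbs: Gibbs sampling; a sequence that several methods proposed may carry one label only). In AlphaSeq, yeast of one mating type display the scFv and yeast of the other type display the target. The frequency of each diploid, read from paired DNA barcodes, reflects how well the two displayed proteins bind. Each replicate has its own calibration line, from reference interactions of the BCL2 family. The assay was run in six technical replicates.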

Each scFv is VH, three GGGGS repeats, VL, as in the parent Ab-14, and differs from it in the CDRs of the light chain only.
VH: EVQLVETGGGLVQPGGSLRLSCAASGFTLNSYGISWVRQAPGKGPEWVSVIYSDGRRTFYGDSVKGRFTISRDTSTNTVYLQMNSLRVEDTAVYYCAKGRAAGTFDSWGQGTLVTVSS
VL: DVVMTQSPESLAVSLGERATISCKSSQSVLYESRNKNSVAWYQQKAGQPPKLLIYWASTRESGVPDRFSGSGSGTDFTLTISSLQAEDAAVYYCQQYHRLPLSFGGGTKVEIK

Sequences are complete VL domains. This list holds designs with more than six substitutions. Kd is apparent (estimated from mating counts) and averaged on the log scale over replicates with a signal. Smaller is tighter. The authors' rule: three or more of the six replicates give a measured affinity, fewer mean a poor binder. Values of this round are not directly comparable with the first-round values of the same sequences. Nonspecific signal, from three strains lacking the peptide, appeared in 4% of pairings of all light chain designs, centred on 430 nM (5% of these signals below 38 nM); values are not corrected for it.

Variant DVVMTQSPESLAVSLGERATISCKVSNSVDGEDRNKNAVAWYQQKAGQPPKLLIYKASTRESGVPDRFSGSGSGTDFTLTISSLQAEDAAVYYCQQYHRLPLSFGGGTKVEIK [GP_Gibbs] gave 490 pM (6 of 6 replicates). Variant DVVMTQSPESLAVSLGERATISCKLSQGVLMESRNKNSVAWYQQKAGQPPKLLIYEAGQREEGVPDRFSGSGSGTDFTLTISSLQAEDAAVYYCQQYHRLPLSFGGGTKVEIK [GP_Gibbs] gave 230 pM (6 of 6 replicates). For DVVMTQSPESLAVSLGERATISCRMDMALTHAHNNVNNIAWYQQKAGQPPKLLIYEGAMVADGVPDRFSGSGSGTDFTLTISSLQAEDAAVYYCQQYDRLPLWFGGGTKVEIK [En_Gibbs], the assay gave 7.9 nM (5 of 6 replicates). For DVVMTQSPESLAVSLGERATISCNVGGEDPGQWYMKDSIAWYQQKAGQPPKLLIYGSSLRAEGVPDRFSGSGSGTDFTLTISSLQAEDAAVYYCQQYWRLPLMFGGGTKVEIK [En_Gibbs], the assay gave 1.6 nM (6 of 6 replicates). With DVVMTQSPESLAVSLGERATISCTISDVMHMESRNVNNVAWYQQKAGQPPKLLIYDLVKREKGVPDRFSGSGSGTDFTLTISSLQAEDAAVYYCQQYHRLPLSFGGGTKVEIK [En_HC] the result was 260 pM (6 of 6 replicates). Variant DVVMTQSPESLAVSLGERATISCKLSNSVNFFGHAINSVAWYQQKAGQPPKLLIYEMETRENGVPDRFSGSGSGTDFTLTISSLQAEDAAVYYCQQYDRLPLSFGGGTKVEIK [En_HC] showed 3.7 nM (6 of 6 replicates). With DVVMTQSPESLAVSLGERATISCHVSSMLMADGGIINSVAWYQQKAGQPPKLLIYGNKLLERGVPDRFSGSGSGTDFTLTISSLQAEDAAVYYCQQYMRLPLSFGGGTKVEIK [En_Gibbs] the result was 2.8 nM (6 of 6 replicates).

Variant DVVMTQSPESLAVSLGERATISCKHEEGVLYQSRNKNSVAWYQQKAGQPPKLLIYEGSTRESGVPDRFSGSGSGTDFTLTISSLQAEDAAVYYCQQYHRLPLSFGGGTKVEIK [GP_Gibbs] showed 1.7 nM (6 of 6 replicates). Variant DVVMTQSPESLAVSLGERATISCKIGITLNTLMHQKNNVAWYQQKAGQPPKLLIYDLVMREQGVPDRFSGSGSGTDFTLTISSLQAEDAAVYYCQQYHRLPLSFGGGTKVEIK [En_Gen] gave 4.5 nM (6 of 6 replicates). Variant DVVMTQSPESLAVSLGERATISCKLPQSTMLESVSKNSVAWYQQKAGQPPKLLIYELSTRGSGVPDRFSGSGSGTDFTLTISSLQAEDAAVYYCQQYHRLPLSFGGGTKVEIK [En_HC] gave 7.1 nM (6 of 6 replicates). For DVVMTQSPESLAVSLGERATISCTISNSFMMENQFKNSVAWYQQKAGQPPKLLIYQATTRENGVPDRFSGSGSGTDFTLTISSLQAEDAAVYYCQCYDRLPLSFGGGTKVEIK [En_HC], the assay gave 170 nM (6 of 6 replicates). Variant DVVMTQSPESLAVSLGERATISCSIQNLGMVNSVWKNSIAWYQQKAGQPPKLLIYDVNILEDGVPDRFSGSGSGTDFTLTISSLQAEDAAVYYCQQYYRLPLLFGGGTKVEIK [En_Gibbs] showed 730 pM (6 of 6 replicates). With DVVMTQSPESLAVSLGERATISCRISASVNYEMVNGQSVAWYQQKAGQPPKLLIYQMSTREEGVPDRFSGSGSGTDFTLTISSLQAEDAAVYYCQQYDRLPLSFGGGTKVEIK [En_HC] the result was 8.0 nM (6 of 6 replicates). Variant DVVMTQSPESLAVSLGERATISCSLAMLLDQQYAKGANIAWYQQKAGQPPKLLIYNAAELVVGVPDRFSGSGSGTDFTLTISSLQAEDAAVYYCQQYYRLPLTFGGGTKVEIK [En_Gibbs] showed 6.4 nM (6 of 6 replicates).

Variant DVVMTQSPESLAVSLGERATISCNLGGLDVNSTYEMDAVAWYQQKAGQPPKLLIYDVNEVGEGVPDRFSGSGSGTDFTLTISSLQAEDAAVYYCQHYSRLPLTFGGGTKVEIK [En_Gibbs] gave 9.3 µM (1 of 6 replicates). Variant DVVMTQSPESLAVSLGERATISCKIGGVTNGTSRNKNSVAWYQQKAGQPPKLLIYEQSTREDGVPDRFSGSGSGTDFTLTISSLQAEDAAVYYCQQYNRLPLSFGGGTKVEIK [En_HC] showed 29 nM (6 of 6 replicates). Variant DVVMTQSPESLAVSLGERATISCSLMQVGGYESNEKNSIAWYQQKAGQPPKLLIYDLRTRESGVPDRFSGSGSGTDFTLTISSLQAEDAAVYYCQQYHRLPLSFGGGTKVEIK [En_HC] gave 8.3 nM (6 of 6 replicates). For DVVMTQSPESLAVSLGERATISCTISSIMNHLTRNSNNVAWYQQKAGQPPKLLIYNMDMREDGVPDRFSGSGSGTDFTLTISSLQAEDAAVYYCQQYDRLPLSFGGGTKVEIK [En_Gen], the assay gave 2.9 nM (6 of 6 replicates). Variant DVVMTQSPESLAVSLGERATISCTLSHSTDLESVHKNSIAWYQQKAGQPPKLLIYDLMTRESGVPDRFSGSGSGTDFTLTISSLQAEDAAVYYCQQYHRLPLSFGGGTKVEIK [En_HC] showed 2.0 nM (6 of 6 replicates).